The source of these data is PubChem BioAssay (Tox21).

Values joined by “and” are separate entries in the source; they are usually repeats but may differ in a detail not shown here. Equal entries are not always repeated. The list shows a part of the results, in another mix than the full data. Results filed as inconclusive are left out. Active and inactive are the calls of the source. Calls come from the whole dose curve.
% is set by controls: 0 for no effect and ±100 for the full control effect.

One assay in a line: p53 small molecule agonists, cell-based qHTS assay with human liver microsomes (AID 1963577).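 Note: p53 response element beta-lactamase reporter cells with liver microsomes plus NADPH.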 To be noted: HCT-116 p53RE-bla with human liver microsomes, ratio, 16 h; at 30.3 µM (top of the series). The source says:
National Center for Advancing Translational Sciences [NCATS]
Division of Preclinical Innovation [DPI]
U.S. Environmental Protection Agency [EPA]
National Institutes of Environmental Health Sciences [NIEHS]
National Toxicology Program [NTP]
U.S. Food and Drug Administration [FDA]
p53, a tumor suppressor protein, is activated following cellular insult, including DNA damage and other cellular stresses. The activation of p53 regulates cell fate by inducing DNA repair, cell cycle arrest, apoptosis, or cellular senescence. The activation of p53, therefore, is a good indicator of DNA damage and other cellular stresses. […] The activation of the reporter gene under culture conditions can be detected by fluorescence intensity.
Tox21 Assay Protocol Summary:
The p53RE-bla cells were dispensed at 4,000cells/3ul/well in 1536-well black-clear bottom plates. After the assay plates were incubated at 37 C, 5% CO2 incubator for 5 hours, 23 nL of compounds dissolved in DMSO, positive controls or DMSO only was transferred to the assay plate. Following compound addition, 3 uL of human liver microsomes (XenoTech, Kansas City, KS) at final concentration of 0.5 mg/mL and 1uL of Beta-Nicotinamide adenine dinucleotide 2-phosphate (NADPH) at final concentration of 0.5 mg/mL were transferred to the assay plate. The plates were incubated at 37 C for 16 hours. 1 uL of LiveBLAzer detection mixture was added to each well and the plates were incubated at room temperature in the dark for 2 h.
(In general: qHTS replaces the single test concentration by a dilution series.)
As to `OCCSCCO`, the activation is inactive: -0.368%.

The same assay, now with this note: HCT-116 p53RE-bla with human liver microsomes, ratio, 16 h; at 66 µM (top of the series).
For `OCCSCCO`, the activation was inactive: -0.797%.

The same assay, now with this note: HCT-116 p53RE-bla with human liver microsomes, ratio, 16 h; at 66 µM (top of the series) unless noted.
`Cc1ccc([N+](=O)[O-])c([N+](=O)[O-])c1`: the activation was inactive: -16.8% and inactive: 0.344%. Same read-out and setting: the value for `Cc1ccc([N+](=O)[O-])cc1[N+](=O)[O-]` was inactive: -2.47% and inactive: -2.08%; that for `COP(C)(=O)OC` was inactive: -2.77% and inactive: -12.1%; that for `Cc1c([N+](=O)[O-])cccc1[N+](=O)[O-]` was inactive: 2.08% and inactive: 0.115%.

On to `CC(C)N(CCO)C(C)C`, for which the activation was inactive: -0.412%. The same measure, in the same setting: to `CCOP(=O)(CC)OCC` belongs inactive: 2.46%. Still for that read-out and setting: to `N#CBr` belongs inactive: -1.17%. On to `COc1ccc([N+](=O)[O-])cc1[N+](=O)[O-]`, for which the activation is inactive: 0.0211%. Same read-out and setting: the value for `O=[N+]([O-])OCC(CO[N+](=O)[O-])(CO[N+](=O)[O-])CO[N+](=O)[O-]` was inactive: 2.08%; that for `CCOP(=O)(CC)Oc1ccc([N+](=O)[O-])cc1` (stereo unspecified) was inactive: -0.347% [at 30.3 µM]; that for `Cc1cccc([N+](=O)[O-])c1[N+](=O)[O-]` was inactive: 6.17% [at 30.3 µM]. On the same count and under the same terms, to `O=[N+]([O-])c1cccc([N+](=O)[O-])c1` belongs inactive: 0.962%; to `CC(C)OP(C)(=O)OC(C)C`, inactive: -12.7% and inactive: -1.8%; to `C/C1=C2N=C(/C=C3N=C(/C(C)=C4\[N-][C@@](C)([C@@H]5N=C1[C@](C)(CCC(=O)NC[C@@H](C)OP(=O)([O-])O[C@H]1[C@@H](O)[C@@H](n6cnc7cc(C)c(C)cc76)O[C@@H]1CO)[C@H]5CC(N)=O)[C@@](C)(CC(N)=O)[C@@H]4CCC(N)=O)[C@@](C)(CC(N)=O)[C@@H]\3CCC(N)=O)C(C)(C)[C@@H]/2CCC(N)=O.[C-]#N.[Co+3]`, inactive: 0.709% [at 30.3 µM]. Same read-out and setting: the value for `CP(=O)(O)OCCC[Si](O)(O)O` was inactive: 2.41%. Turning to `N=C(N)N[N+](=O)[O-]`, the activation was inactive: 1.22%.

As to `CCN(CC)CCCl`, the activation is inactive: 1.86%. Regarding `Nc1cc([N+](=O)[O-])cc([N+](=O)[O-])c1O`, the activation was inactive: -2.67%. Still for that read-out and setting: to `CN(C)CCCl` belongs inactive: 2.27%.
